Source: article PMC7717691, “Design, synthesis, and anticonvulsant effects evaluation of nonimidazole histamine H3 receptor antagonists/inverse agonists containing triazole moiety” (Journal of Enzyme Inhibition and Medicinal Chemistry, 2020)

Protein sequences, listed by entry. Tags and fused reporters are not part of them. Lines headed by an entry give the natural chain unless they say otherwise; changes in a name come on top.
UniProt Q9Y5N1: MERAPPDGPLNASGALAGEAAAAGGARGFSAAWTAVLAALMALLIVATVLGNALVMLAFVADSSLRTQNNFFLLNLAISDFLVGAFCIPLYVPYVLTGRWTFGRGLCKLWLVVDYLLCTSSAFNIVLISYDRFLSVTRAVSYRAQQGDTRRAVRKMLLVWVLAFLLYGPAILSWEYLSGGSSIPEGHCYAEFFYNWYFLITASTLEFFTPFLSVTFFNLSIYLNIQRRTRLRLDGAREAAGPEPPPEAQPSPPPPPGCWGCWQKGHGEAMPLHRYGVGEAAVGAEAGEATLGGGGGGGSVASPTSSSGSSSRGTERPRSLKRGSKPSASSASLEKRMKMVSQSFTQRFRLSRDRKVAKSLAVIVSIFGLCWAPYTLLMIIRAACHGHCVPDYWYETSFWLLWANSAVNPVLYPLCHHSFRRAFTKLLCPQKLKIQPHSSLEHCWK

Target: T1, H3R (Homo sapiens, UniProt Q9Y5N1)
T1 construct: expressed in transfected cells
Assay: CRE-driven luciferase reporter gene assay, H3R antagonistic activity
Assay type: cell-based
Details: HEK-293 cells, Table 1
Method: cAMP-response element (CRE) reporter gene assay has been extensively used to evaluate the efficacy of GPCR antagonists or agonists. […] Initially, compounds and positive controls were tested at two concentrations (100 nM and 1 µM) to obtain the preliminary investigation of their H3R antagonistic activities. In the assays, the antagonistic activities was positively correlated with the rise of the fluorescence value and indicated by the % antagonism. For the prominent compounds IC50 values were determined at additional assays.
Human thalamus poly-A RNA (Clontech, Palo Alto, CA, USA) was used to clone the hH3R gene by RT-PCR. DNA PCR primers were designed in the light of the reported human histamine receptor gene sequences (GenBank accession no.AF140538). HEK-293 cells were cultured and transfected for the luciferase assay. The detailed procedures were described in the previous publication.
Stable HEK-293 cells, which had been co-transfected with H3R and pCRE-Luc, were seeded in a 96-well plate overnight, and were grown to 90–95% confluence[43]^,[44]. Then the cells were treated with various concentrations of tested compounds in serum-free DMEM and incubated for 20 min. Cells were then stimulated with 100 nM Histamine in serum-free DMEM containing 2 µM Forskolin and incubated for 4 h at 37 °C. […]

Compound `O=C(c1ccc(OCCCc2cnc[nH]2)cc1)C1CC1` [CPX, ciproxifan, reference compound] has an IC50 of 82 nM.
